Experimental data: paper PMC11406361, “Several orphan solute carriers functionally identified as organic cation transporters: Substrates specificity compared with known cation transporters” (The Journal of Biological Chemistry, 2024)

Protein sequences, listed by entry. Tags and fused reporters are not part of them. Lines headed by an entry give the natural chain unless they say otherwise; changes in a name come on top.
UniProt Q8N808: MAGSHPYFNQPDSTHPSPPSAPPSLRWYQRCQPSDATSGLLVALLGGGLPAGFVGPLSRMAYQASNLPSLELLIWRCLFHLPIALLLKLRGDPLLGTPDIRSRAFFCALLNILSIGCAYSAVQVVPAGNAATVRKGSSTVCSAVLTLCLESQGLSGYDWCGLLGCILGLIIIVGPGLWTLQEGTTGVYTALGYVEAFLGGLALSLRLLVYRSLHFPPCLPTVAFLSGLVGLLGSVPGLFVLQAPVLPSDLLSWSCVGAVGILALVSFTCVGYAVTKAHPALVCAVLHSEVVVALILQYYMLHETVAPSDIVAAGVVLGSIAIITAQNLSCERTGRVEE

Biological target: SLC35G3 (Homo sapiens, UniProt Q8N808)
Experiment: Uptake ratio screen, SLC35G3-overexpressing HEK293 over empty vector cells
Format: cell-based
Set-up: by amplifying the entire gene-of-interest within the HEK293 genome via a long-range PCR

CNCCC(Oc1ccc(C(F)(F)F)cc1)c1ccccc1 (stereo not shown) [Fluoxetine]
Uptake data for SLC35G3, mean value (fold-increase over empty vector control): 1.37
